From ChEMBL document CHEMBL1141206, “Nonsteroidal anti-inflammatory drugs and their analogues as inhibitors of aldo-keto reductase AKR1C3: new lead compounds for the development of anticancer agents” (Bioorg Med Chem Lett, 2005)

Target: T1, Aldo-keto reductase family 1 member C3 (Homo sapiens, UniProt P42330)
T1 sequence (P42330 whole entry): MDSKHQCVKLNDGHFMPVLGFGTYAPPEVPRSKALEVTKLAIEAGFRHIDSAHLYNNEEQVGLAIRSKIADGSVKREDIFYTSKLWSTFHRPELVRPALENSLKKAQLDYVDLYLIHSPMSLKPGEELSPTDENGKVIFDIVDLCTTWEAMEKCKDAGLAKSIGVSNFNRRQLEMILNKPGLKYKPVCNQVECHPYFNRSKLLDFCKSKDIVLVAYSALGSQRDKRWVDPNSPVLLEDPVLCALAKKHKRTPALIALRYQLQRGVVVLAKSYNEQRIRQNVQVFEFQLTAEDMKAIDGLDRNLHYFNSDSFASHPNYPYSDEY
Assay: Inhibition of recombinant human AKR1C3

IC50: 480 nM
SMILES: COc1ccc2cc([C@H](C)C(=O)O)ccc2c1 [NAPROXEN]
